{
  "source": "patent US20260382729A1",
  "about": "“HETEROBIFUNCTIONAL COMPOUNDS AS p53 ACETYLATORS” (published 2026)",
  "key": {"[1]": {"test_system": "bromodomain (BRD) of CBP/p300", "assay": "AlphaScreen binding assay, CBP/p300 bromodomain", "conditions": "read-out: IC50 for binding to CBP/p300 bromodomain, n=2", "excerpt": ". In addition, MS78 induced p53K382 acetylation in a time-dependent manner (FIG. 6D). […] . FIG. 12. MS78 is selective for the p300/CBP bromodomain over other bromodomain-containing proteins. […] ."}, "[2]": {"test_system": "p53-p300 interaction in NCI-H1299 p53-null cells", "assay": "p53-p300 interaction by p53-FLAG pull-down, NCI-H1299 (p53-null)", "conditions": "24 h", "excerpt": "FIG. 6. Discovery and characterization of MS78. (A) Chemical structure of MS78, derived from compound 7. […] . Right, quantification of the normalized p53K382ac level on the left. Results shown are the mean values±SD from three independent experiments. […] . Results shown are representative of three independent experiments. […] . Right, quantification of normalized p300 and p53K382ac levels from three independent experiments shown on the left. […] . Right, quantification of normalized p300 and p53K382ac levels from three independent experiments shown on the left. […] . Right, quantification of the p300 and normalized p53K382ac levels from four independent experiments shown on the left (***P<0.001).\nNext, we performed endogenous IP experiments to pull down FLAG-tagged p53Y220C to assess the ternary complex formation between p53Y220C and p300 in the presence of MS78. We treated NCI-H1299 p53-null and NCI-H1299 p53Y220C cells with MS78 at two concentrations. […] To further confirm that p53Y220C K382 acetylation depends on p300, we knocked down p300 using siRNA in the NCI-H1299 (p53Y220C) cell line and monitored p53Y220C K382 acetylation. […] . […] Finally, we performed competition rescue experiments by pretreating the NCI-H1299 p53Y220C cell line with 10 μM of compound 33 (the p300/CBP bromodomain binder used in MS78) for 2 hours. […] . […]"}, "NUGC-3 cells": {"test_system": "NUGC-3 cells", "assay": "cell viability, NUGC-3, 72 h", "conditions": "NUGC-3; ratio of GI50", "excerpt": "Right: quantification of the normalized p53K382ac level in BxPC3 cells from three independent experiments. *P<0.05, **P<0.01, ***P<0.001. […] . GraphPad Prism 8 was used in analysis of raw data. […] . Cells were fixed and stained with crystal violet and the images are representative of two independent experiments. […] . The tumor-suppressive effect of MS78 in p53Y220C-harboring cancer cell lines was examined. […] . NCI-H1299 (CRL-5803), BxPC3 (CRL-1687) and U-20S (HTB-96) were purchased from the American Tissue Culture Collection (ATCC, Manassas, VA). In addition, NUGC-3 were obtained from the Japan Health Science Research Resources Bank (JCRB, JCRB0822). NCI-H1299, BxPC3 and NUGC-3 were cultured in RPMI 1640 medium (Thermo Fisher Scientific Inc., Waltham, Massachusetts) supplemented with 10% heat-inactivated fetal bovine serum Gibco™ (FBS) (Life Technologies, Grand Island, NY) and 1% Gibco™ Penicillin/Streptomycin (Life Technologies, Grand Island, NY). […]\nThe cell viability assay was performed as previously described.^48 Briefly 5×10^4 cells were seeded per well into 96-well microplates. […] Cell viability was evaluated using WST-8 reagent (CK04, Dojindo). Absorbance signals were obtained with Infinite F PLEX plate reader (TECAN, Morrisville, NC) at 450 nm with 690 nm as reference wavelength after 3 h incubation at 37 °C. […]"}, "BxPC3 cells": {"test_system": "BxPC3 cells", "assay": "clonogenic assay, BxPC3", "experimental": "FIG. 8. […] . GraphPad Prism 8 was used in analysis of raw data. […] . Cells were fixed and stained with crystal violet and the images are representative of two independent experiments. […] . The clonogenic assay was performed as previously described.^48 BxPC3 or NUGC-3 cells (2000 cells per well) were seeded into 12-well tissue culture plates. After 24 h, cells were treated with 0, 1, 3 and 10 μM of indicated compounds for 14 d. Cell medium was changed with fresh full medium containing indicated compounds every 72 h. The plates were then washed with PBS and stained with the solution containing 0.5% (w/v) crystal violet and 6% (v/v) glutaraldehyde for 30 min. The plates were then washed with running water until cell colonies were clear without background color and then dried at room temperature. Epson Perfection V600 Photo was used for the acquisition of the images."}},
  "data": [
    {"smiles": "CCn1c2ccc(CNCCOCCOCCOCCn3cc(COc4ccc(CCc5nc6cc(-c7c(C)noc7C)ccc6n5CCN5CCOCC5)cc4F)nn3)cc2c2ccc(-c3cc(C)cs3)cc21", "values": [
      {"measurement": "IC50", "setting": "[1]", "value": 3.02, "unit": "µM"},
      {"measurement": "interaction between p53 and p300", "setting": "[2]", "value": "no interaction was observed"},
      {"measurement": "higher potency compared to PK9328", "setting": "NUGC-3 cells", "value": "about 4 fold"},
      {"measurement": "clonogenicity", "setting": "BxPC3 cells", "value": "marked reduction in clonogenicity"}
    ]}
  ]
}
